{"source": "ChEMBL document CHEMBL1127048", "about": "“A potent new class of kappa-receptor agonist: 4-substituted 1-(arylacetyl)-2-[(dialkylamino)methyl]piperazines” (J Med Chem, 1993)", "system": "Mus musculus", "assay": "In vivo antinociceptive activity was determined using mouse acetylcholine induced abdominal constriction test following subcutaneous administration; range (0.23-0.70)", "details": "Abdomen"}
{"smiles": "CN(C(=O)Cc1ccc(Cl)c(Cl)c1)C1CCCCC1N1CCCC1", "note": "(stereo unspecified)", "values": [{"measurement": "ED50", "value": 0.41, "unit": "mg/kg"}]}
